Reference: ChEMBL document CHEMBL1140307, “Design and synthesis of alpha-aryloxyphenylacetic acid derivatives: a novel class of PPARalpha/gamma dual agonists with potent antihyperglycemic and lipid modulating activity” (J Med Chem, 2005)

Protein sequences, listed by entry. Tags and fused reporters are not part of them. Lines headed by an entry give the natural chain unless they say otherwise; changes in a name come on top.
UniProt P37231: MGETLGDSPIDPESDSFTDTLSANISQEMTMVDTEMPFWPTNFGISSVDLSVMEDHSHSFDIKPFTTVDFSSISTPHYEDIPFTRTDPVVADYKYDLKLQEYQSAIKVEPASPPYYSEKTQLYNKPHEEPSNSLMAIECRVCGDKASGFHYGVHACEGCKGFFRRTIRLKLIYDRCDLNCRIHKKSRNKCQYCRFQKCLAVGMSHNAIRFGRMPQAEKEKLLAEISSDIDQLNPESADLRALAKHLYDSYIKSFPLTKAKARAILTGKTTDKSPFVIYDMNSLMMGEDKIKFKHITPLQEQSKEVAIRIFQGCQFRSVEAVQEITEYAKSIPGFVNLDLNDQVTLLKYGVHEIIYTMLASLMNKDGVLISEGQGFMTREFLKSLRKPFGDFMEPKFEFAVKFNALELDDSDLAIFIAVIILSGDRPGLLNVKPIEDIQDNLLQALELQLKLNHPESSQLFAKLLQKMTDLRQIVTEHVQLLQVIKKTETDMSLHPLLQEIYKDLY

How the values were obtained:
[1] = target: T1, Peroxisome proliferator-activated receptor gamma (Homo sapiens, UniProt P37231); assay: In vitro binding affinity for human PPAR gamma
[2] = target: T1, Peroxisome proliferator-activated receptor gamma; assay: Agonist response against human PPAR gamma in transactivation assay; format: functional

IC50 [1]: 51 nM
EC50 [2]: 140 nM
Structure (SMILES): CCCc1cc2c(oc(=O)n2C(C)C)c(CCC)c1O[C@H](C(=O)O)c1ccc(C(C)C)cc1
